These are literature values, as cited in PMC3966047, “Analysis of the minimal specificity of caspase-2 and identification of Ac-VDTTD-AFC as a caspase-2-selective peptide substrate” (Bioscience Reports, 2014).

In one data set the target is T1, caspase-3 (Homo sapiens, UniProt P42574).
T1 construct: made in house; host or cells: E. coli BL21(DE3)pLysS
T1 sequence (P42574 29-175 limits assumed): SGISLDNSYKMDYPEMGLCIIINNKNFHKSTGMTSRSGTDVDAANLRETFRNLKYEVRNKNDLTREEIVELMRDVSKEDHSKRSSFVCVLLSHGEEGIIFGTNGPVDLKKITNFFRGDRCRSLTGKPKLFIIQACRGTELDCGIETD
T1 sequence (P42574 176-277 limits assumed): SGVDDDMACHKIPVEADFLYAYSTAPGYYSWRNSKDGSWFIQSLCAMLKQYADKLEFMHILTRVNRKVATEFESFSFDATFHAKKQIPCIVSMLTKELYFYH
The following applies: site DVPD↓C; cited from earlier work. From the text:
Bioinformatic analyses, using the data from the transcriptional reporter system, predicted that caspase-2 could cleave Runx1. Runx1 plays a critical role in haematopoiesis, and Runx1 translocations or other mutations occur frequently in myeloid leukaemias, and less commonly in other cancer types. […] Caspase-2 was predicted to cleave Runx1 at the site DVPD^99↓G, within the βB-C ...

The next data set relates to caspase-2. The conditions noted are these: site DVPD↓C; cited from earlier work. The text has this:
It seems likely that identification of caspase-2 substrates may provide valuable clues to its biological role. […] Apoptotic signalling by caspase-2 has been proposed to result from its processing of the pro-apoptotic Bcl-2 relative Bid. […] Runx1 plays a critical role in haematopoiesis, and Runx1 translocations or other mutations occur frequently in myeloid leukaemias, and less commonly in other cancer types. […] Caspase-2 was predicted to cleave Runx1 at the site DVPD^99↓G, within the βB-C ...

On to MDM-2: murine double minute 2, for which, in the data set with caspase-3, the “cleavage by caspase-3 compared with caspase-2 (in words)” value is “less potently by caspase-3”. Moreover, the “cleavage by caspase-2 (in words)” value in the data set with caspase-2 is “cleaved by caspase-2”.
